For 2 molecules, inhibition results are on record in ChEMBL document CHEMBL5537192, “Specific Inhibitors of Mitochondrial Deacylase Sirtuin 4 Endowed with Cellular Activity” (J Med Chem, 2024).

Active and inactive are the calls of the source. The rule behind the calls is not given here.

The target in assay [1] is T1, NAD-dependent protein lipoamidase sirtuin-4, mitochondrial (Mus musculus) (UniProt Q8R216).
T1 sequence (whole entry): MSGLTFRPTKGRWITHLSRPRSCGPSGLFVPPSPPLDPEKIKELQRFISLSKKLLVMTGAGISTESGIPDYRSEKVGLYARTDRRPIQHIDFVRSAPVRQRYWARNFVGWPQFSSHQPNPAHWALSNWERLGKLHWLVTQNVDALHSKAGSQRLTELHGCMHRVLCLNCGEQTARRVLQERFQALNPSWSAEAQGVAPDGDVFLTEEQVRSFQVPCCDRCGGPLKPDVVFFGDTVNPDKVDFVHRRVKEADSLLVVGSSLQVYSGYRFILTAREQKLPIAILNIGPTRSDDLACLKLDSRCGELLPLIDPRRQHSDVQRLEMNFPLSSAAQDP
The note with it: C2C12, dose 20-50 nM, time 4.0 hrs.

Assay [2] deals with T1, NAD-dependent protein lipoamidase sirtuin-4, mitochondrial (Mus musculus). The note with it: C2C12, dose 20-50 nM, time 8.0 day.
Assay [3] shares this target. The note with it: C2C12, dose 10-50 mM, time 4.0 hrs.
The target is the same in assay [4]. The conditions noted are these: C2C12, dose 10-50 mM, time 8.0 day.

In the case of `CC(/C=C/C(=O)NO)=C\[C@@H](C)C(=O)c1ccc(N(C)C)cc1`, the inhibition entry in assay [1] and in assay [2] was “inactive” each time.

On to `NC(=O)c1cccnc1`, for which, in assay [3], the inhibition entry was “inactive”. Further, the inhibition result in assay [4] was “Active”.
